Where two headings read alike, the source gives them in different places.
Tested on: serum DPP4
Conditions: 10 mg/kg oral, single dose

SMILES: N[C@@H](CC(=O)N1CCn2c(nnc2C(F)(F)F)C1)Cc1cc(F)c(F)cc1F [MK-0431]
- DPP4 specific activity % (0 h (before administration)): 100.0%
- DPP4 specific activity % (1 h): 35.7 ± 9.8%
- DPP4 specific activity % (3 h): 12.2 ± 1.0%
- DPP4 specific activity % (9 h): 39.0 ± 3.0%
- DPP4 specific activity % (12 h): 48.9 ± 3.6%
- DPP4 specific activity % (24 h): 62.5 ± 2.0%

Reference: patent US8476272B2 (dated 2013)
